From US20240228491A1, “METHIONINE ADENOSYLTRANSFERASE INHIBITOR, PREPARATION METHOD THEREFOR AND APPLICATION THEREOF” (SCINNOHUB PHARMACEUTICAL CO., LTD., priority 2021, published 2024)

Protein sequences, listed by entry. Tags and fused reporters are not part of them.
UniProt P31153, whole entry: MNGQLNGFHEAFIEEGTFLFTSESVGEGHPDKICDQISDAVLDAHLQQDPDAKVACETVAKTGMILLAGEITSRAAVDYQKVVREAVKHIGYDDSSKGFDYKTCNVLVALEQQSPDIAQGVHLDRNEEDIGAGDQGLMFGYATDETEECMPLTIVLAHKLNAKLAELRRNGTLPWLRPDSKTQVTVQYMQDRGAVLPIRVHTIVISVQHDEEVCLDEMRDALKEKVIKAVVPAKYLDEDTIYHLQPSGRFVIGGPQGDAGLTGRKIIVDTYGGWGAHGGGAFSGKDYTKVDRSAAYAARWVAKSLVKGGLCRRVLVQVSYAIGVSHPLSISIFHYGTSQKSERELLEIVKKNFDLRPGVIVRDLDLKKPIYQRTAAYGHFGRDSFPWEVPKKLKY

Tests used:
[1] = test system: KP-4 cells; assay: Inhibitory activity test of KP-4 cells; conditions: read-out: KP-4 cell inhibitory activity IC50; 144 h incubation
Procedure: On day 1, cell seeding: after digestion of the cells with trypsin, the cells were resuspended to 1*10^4/mL with RPMI1640 complete medium (HyClone Company, Cat. No. SH30809.01) supplemented with 10% FBS (Gibco, 10099141C), mixed evenly, and added into the 96-well plate at 100 μL/well. The plate was put back to the incubator for the adherent growth of cells. On day 2, the addition of the compounds to be tested: 100 μL of the complete medium containing the compounds (the concentration of the compound in the medium was formulated as follows: 3-fold gradient dilution from 60 μM, 10 concentration gradients in total) was added, incubated for 144 hours at 37° C., 5% CO2. On day 8, the cell culture plates were taken out from incubator and equilibrated to room temperature, excess medium was pipetted from the wells so that 50 μL of supernatant was retained, and 50 μL of CellCounting-Lite 2.0 (Nanjing Vazyme Biotech Co., Ltd., Cat. No. DD1101) reagent was added per well, and the cells were fully lysed by shaking at room temperature for 10 min, and incubated for 5 min to detect the fluorescence intensity.
(§1) % Inhibition=100−(signal of the well with the compound to be tested−signal of the well with only medium and free of cells)/(signal of the well with cells but without addition of the compound−signal of the well with only medium and free of cells)×100. […]

[2] = test system: HCT116 MTAP-/- cells; assay: Activity test of HCT116 MTAP gene homozygous deletion cells (CellTiter-Glo); conditions: read-out: HCT116 MTAP-/- Cell IC50, 120 h incubation
Procedure: On day 1, cell seeding: after digestion of the cells with trypsin, the cells were resuspended to the desired density with the complete medium (RPMI-1640 supplemented with 10% FBS; the brand of FBS is EXCELL, Cat. No. FND500; the brand of RPMI-1640 is ATCC, Cat. No. 30-2001), mixed evenly, and added into the 96-well plate at 100 μL/well with a cell density of 1000-3000 cells per well. The plate was put back to the incubator for the adherent growth of cells. On day 2, the addition of the compounds to be tested: before the addition of the compounds, the cells were starved with serum-free medium for 4 h, then the complete medium containing the corresponding concentration of compounds was added thereto, and the cells were incubated at 37° C., 5% CO2 for 120 h. On day 7, the cell culture plates were taken out from incubator and equilibrated to room temperature. 50 μL of CellTiter-Glo (Promega Company, Cat. No. G7571) reagent was added per well, and the cells were fully lysed by shaking at room temperature for 2 min, and then incubated for another 60 min to detect the fluorescence intensity. Calculation formula:
as §1

[3] = test system: DOHH-2 cells; assay: Inhibitory activity test of DOHH-2 cells; conditions: read-out: DOHH-2 cell inhibitory activity IC50; 120 h incubation, CellTiter-Glo
Procedure: On day 1, cell seeding: cells were resuspended to the desired density with DMEM complete medium (Gibico, Cat. No. 10569010) supplemented with 10% FBS (Gibco, 10099141C), mixed evenly, and added into the 384-well plate at 30 μL/well with a cell density of 800/well. The compounds to be tested were added as follows: 30 nL of DMSO solution containing the compound (the concentration of the compound in which was formulated as: 3-fold gradient dilution from 10 mM, 10 concentration points in total) was added, incubated for 120 h at 37° C., 5% CO2. On day 6, the cells treated with compounds were removed and equilibrated to room temperature, 30 μL of CellTiter-Glo (Promega company, Cat. No. G7573) reagent was added per well, and the cells were fully lysed by shaking at room temperature, and then incubated in dark at 37° C., 5% CO2 for 30 min, to detect the fluorescence intensity.
% Inhibition=100−(signal of the well with the compound to be tested−signal of the well with only medium and free of cells)/(signal of the well with cells but without the addition of the compound−signal of the well with only medium and free of cells)×100.
The log value of concentration was used as the X-axis and % Inhibition was used as the Y-axis, so as to fit the dose-effect curve and calculate the IC50 value using nonlinear regression (dose response−variable slope) in the analysis software GraphPad Prism 8.

[4] = target: MAT2a (Homo sapiens (Human), UniProt P31153); assay: MAT2a enzymatic activity test (colorimetric assay); conditions: read-out: IC50 against MAT2a, OD620, 150 min reaction
Procedure: The Colorimetric assay method was used to detect the IC50 value of the tested compounds on MAT2a.
The specific steps were as follows: The compounds having the test starling concentration of 1 μM or 10 μM were diluted into 10 concentration points in a 3-fold gradient. 250 nL of the solutions of the compounds to be tested with 10 different concentrations were taken and added into a 384 well plate for later use. 20 μg/mL of MAT2a enzyme solution was prepared with Assay buffer (50 mM Tris, 50 mM KCl, 10 mM MgCl2, 0.05% polyoxyethylene lauryl ether, pH 8.0). 15 μL of the MAT2a enzyme solution at 20 μg/mL was add into the wells of the compounds to be tested at different concentrations; and 15 μL of Assay buffer was added into the negative control well. An incubation was carried out for 15 minutes after shaking for mixing well. A mixed substrate solution (comprising 400 μM ATP and 600 μM L-Methionine) was prepared with Assay buffer. 10 μL of the mixed substrate solution was added to the positive control well, the compound to be tested well, and the negative control well, respectively, and the reaction began, for a reaction time of 150 min. […] OD620 was read and data were processed. […]

| SMILES | IC50 [1] [nM] | IC50 [2] [nM] | IC50 [3] [nM] | IC50 [4] [nM] |
| --- | --- | --- | --- | --- |
| Nc1c(-c2ccn3nccc3c2)c(=O)n(-c2ccc(Cl)cc2)c2nc(C(F)(F)F)ccc12 | 410 | 13.7 | 200 | 16 |
| Cn1ncc2cc(-c3c(N)c4ccc(C(F)(F)F)nc4n(-c4ccc(Cl)cc4)c3=O)cnc21 | 970 |  |  | 15.8 |
